Ki data for one molecule are collected here from ChEMBL document CHEMBL1142045, “Carbonic anhydrase inhibitors. Interaction of isozymes I, II, IV, V, and IX with organic phosphates and phosphonates” (Bioorg Med Chem Lett, 2005).

The test addresses Carbonic anhydrase 2 (Homo sapiens, UniProt P00918). The test is described as follows: Binding affinity towards human cytosolic carbonic anhydrase II.

In turn, `CP(=O)(O)O` had a Ki of 98 nM.
